Test system: PCA - induced amnesia (impairment of memory)
Assay: one-trial passive avoidance test in mice, PCA - induced amnesia model
Details: PCA 5 mg/kg i.p., 24 h after training, cut off 300 sec

Row | SMILES | step-down latency (median) (test compound 1.25 mg/kg p.o.) [s] | step-down latency (median) (test compound 10.0 mg/kg p.o.) [s] | step-down latency (median) (test compound 2.5 mg/kg p.o.)
1 | COc1ccc(CCN2CCN(C(Cc3ccc(F)cc3)c3ccc(F)cc3)CC2)cc1OC (racemic) | 263.6 | 130.1 | –
2 | COc1ccc(CCN2CCN(C(Cc3ccc(F)cc3)c3ccccc3)CC2)cc1OC (racemic) | – | – | 198.2 s
3 | COc1ccc(CCN2CCN(C(Cc3ccccc3)c3ccc(F)cc3)CC2)cc1OC (racemic) | – | – | 199,9 sec.

— patent US5087627A, “Agent for treatment of disorders of the cerebro-neural transmission system” (Santen Pharmaceutical Co., Ltd., priority 1989, dated 1992)
